# Compound activity deposited in PubChem BioAssay by Broad Institute.
# EWS-Fli inh: EWS/Fli-driven NR0B1 reporter inhibitors, primary screen, A673 cells, NR0B1 luciferase, luminescence, MLPCN library; viability-normalised; inhibition, % at 12.6 µM; 0.67% of 350,000 active;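 active = mean inhibition of at least 50% after viability correction, with every replicate also passing that limit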;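 also: firefly luciferase signal divided by Alamar Blue viability fluorescence both relative to DMSO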
# Yeast UUG start: modulators of start codon recognition fidelity in yeast | S. cerevisiae UUG-firefly luciferase reporter, luminescence/redox ratio | activity score, % at 18.7 µM | 350,000 tested, 0.13% active;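 active = replicate mean at a twofold rise or more, about +100% in these data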;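 also: firefly luciferase made from a UUG start codon reports start codon fidelity; reporter light over untreated wells divided by growth signal over untreated wells; some hits fall short of that in this replicate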
# miR122 inh: miR-122 Renilla sensor signal increase in Huh7, primary screen, miR-122 inhibitor project, cell-based, single point, plate reader. 0.3% of 340,000 active. activation (reporter increase), % at 12.5 µM. Huh7 miR-122 Renilla luciferase sensor, 48 h; neutral wells = 0, positive control = 100. AID 602342, 2012;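 active = mean replicate activation score at least 90 and every replicate individually at or above 90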;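 also: higher luciferase means less miR-122 activity so hits act as miR-122 inhibitors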
# F508del corr: F508del CFTR correction, initial screen, CFBE line, single point; AID 720511, 2013; activity (quench increase), % at 7.58 µM; CFBE cells, YFP halide quenching; stimulated with forskolin plus potentiator P3; % fluorescence drop versus neutral controls; 0.36% of 350,000 active;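 active = mean added fluorescence quench of at least 8% versus neutral control, with both replicates also reaching 8%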;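 also: cells transiently co-express mutant CFTR-F508del with the halide-sensitive YFP; corrector assay measuring rescue of mutant channel to the surface after 24 h compound exposure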
# LGR2 inh: inhibitors of bursicon-induced LGR2 CRE-luciferase signal, primary screen, cell-based, HEK293, CRE-luciferase reporter, bursicon stimulation | bursicon-stimulated, 4 h | Drosophila bursicon receptor LGR2 (rickets) | AID 720647, 2013 | 0.35% of 380,000 active | inhibition, % at 9.99 µM;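 active = drop in luminescence signal, shown as inhibition above about 50% in the replicate tests, limit read from the data, passing the limit was not always enough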;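 also: agonist challenge used bursicon conditioned medium at about half maximal strength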
# PglD DTNB: C. jejuni PglD acetyltransferase inhibitors, primary screen, biochemical, DTNB colorimetric, single point | 0.098% of 360,000 active | purified PglD enzyme, DTNB colorimetric CoA detection | inhibition, % at 12.5 µM | AID 602405, 2012 | UDP-N-acetylbacillosamine N-acetyltransferase PglD (Campylobacter jejuni); in the data active = inhibition above about 16%, passing the limit was not always enough
# The depositor's hits bear a star; · = no result given; ! = repeats disagree; [ ] = another dose, or the depositor's remark. Shown are actives, neighbours in structure and some others; about 1.3% of the full set was active somewhere.
# Every second line gives: PglD DTNB	Yeast UUG start	F508del corr	LGR2 inh	miR122 inh	EWS-Fli inh
C[C@H](CO)N1C[C@H](C)[C@@H](CN(C)CC2CCCCC2)OCCCC[C@H](C)Oc2ccc(NC(=O)Nc3ccc(C(F)(F)F)cc3)cc2C1=O
  3	0	0	-3	-27[16.7 µM]	60*
C[C@@H]1CN([C@H](C)CO)C(=O)c2cc(NC(=O)Nc3ccc(C(F)(F)F)cc3)ccc2O[C@@H](C)CCCCO[C@@H]1CN(C)CC1CCCCC1
  10	6	-1	1	-27[16.7 µM]	78*
C[C@@H]1CN([C@@H](C)CO)C(=O)c2cc(NC(=O)Nc3ccc(C(F)(F)F)cc3)ccc2O[C@@H](C)CCCCO[C@H]1CN(C)CC1CCCCC1
  0	6	-1	·	4[16.7 µM]	47
CN1C(=O)c2cc(NC(=O)Cc3cccs3)ccc2OC[C@H]2O[C@H](CC(=O)N[C@@H]3CCN(Cc4ccccc4)C3)CC[C@@H]21
  5	·	·	-3	·	13
CC(C)(C)c1ccc(OCC(=O)Nc2ccc3c4c(cccc24)C(=O)NC3=O)cc1
  -1	-14	20*	13	-21	39
CC(=O)Nc1ccc(S(=O)(=O)NCCc2ccc(S(N)(=O)=O)cc2)cc1
  0	-16	·	·	226*	·
O=C(Nc1ccc(S(=O)(=O)NCCc2ccccc2)cc1)c1ccco1
  ·	·	-2	-12	365*	4
CC(=O)Nc1ccc(S(=O)(=O)NCC(=O)NCCc2ccc(S(N)(=O)=O)cc2)cc1
  -10	-1	2	-4	10	3
COc1ccc(S(=O)(=O)N(C)C[C@@H]2OCCCC[C@H](C)Oc3ccc(NC(=O)Nc4cccc5ccccc45)cc3C(=O)N([C@H](C)CO)C[C@@H]2C)cc1
  7	-15	-3	7	-3[16.7 µM]	-5
COC(=O)/C=C1\OC(c2ccccc2)c2ccccc21 (configuration not stated)
  ·	·	1	-29	·	2
Cc1ccc(-c2ccc(C3[C@H]4CNC[C@@H]3N4C(=O)Nc3ccc(F)cc3)cc2)cc1 (some centres not stated)
  ·	·	-6	-14	·	62*!
COc1ccccc1-c1ccc(C2[C@H]3CNC[C@@H]2N3C(=O)Nc2ccccc2Cl)cc1 (some centres not stated)
  ·	·	-2	6	·	62*
O=C(Nc1ccc(F)cc1)N1[C@@H]2CNC[C@H]1C2c1ccc(-c2ccc(F)cc2)cc1 (some centres not stated)
  ·	·	0	10	·	-1
O=C(NCC1OCCc2ccccc21)C1COc2ccccc2O1 (configuration not stated)
  -3	-2	·	·	2	·
CN(C)c1cc(Nc2ccc(O)cc2)c([N+](=O)[O-])c2nonc12
  -6	-15	1	-12	-3	6
O=[N+]([O-])c1c(Nc2ccc(O)cc2)cc(Cl)c2nonc12
  7	-20	-12	41	·	61*
O=[N+]([O-])c1ccc(NC(=S)N2CCc3ccccc32)cc1
  -1	-24	2	0	22	·
COc1ccc(NC(=O)c2ccc(NC(=O)c3nc4nccc(C)n4n3)cc2)cc1
  -2	-11	27*	-2	-12	-26
COc1ccc(C(=O)Nc2ccc3ncccc3c2)cc1
  -4	-41	-1	59*	·	58*
O=C(Nc1ccc2ncccc2c1)c1cccc(Br)c1
  1	-16	2	-106	4	-131
Cc1ccc(C(=O)Nc2ccc3ncccc3c2)cc1
  2	-68	-1	74*	·	66*
COc1ccc(NC(=O)c2ccc3nccnc3c2)cc1
  ·	·	·	·	5	·
CC1(C)Cc2sc3c(=O)[nH]c(=S)[nH]c3c2CO1
  ·	·	0	-1	3	5
Cc1ccccc1OC1C(=O)N(Cc2ccc3c(c2)OCO3)C1c1sccc1C (configuration not stated)
  ·	·	·	36	158*	·
O=C1C(Oc2ccccc2)C(c2cccs2)N1Cc1ccc2c(c1)OCO2 (configuration not stated)
  3	-13	·	16	71	·
Cc1noc(C)c1NC(=O)N(C)C[C@H]1Oc2ccc(NC(=O)C3CCCCC3)cc2C(=O)N([C@@H](C)CO)C[C@@H]1C
  3	-4	2	-3	-6[16.7 µM]	-8
CC(C)c1ccc2c(c1)C(N1CCNCC1)Cc1ccc(F)cc1S2 (configuration not stated)
  ·	·	-29	104*	·	22
Cc1cccc(N/C=C/C(=O)c2cccs2)c1C
  ·	·	·	70*	·	·
CC(C)c1ccc(/C=N/NC(=O)c2ccccn2)cc1
  2	-74	0	75*	-4	28
CCCC(=O)N1CCC2(CC1)CN(C(=O)Cc1ccccn1)[C@@H](CO)c1[nH]c3cc(OC)ccc3c12
  ·	·	-2	-18	·	8

# Printed as active in F508del corr, among the entries above:
compound	PglD DTNB	Yeast UUG start	F508del corr	LGR2 inh	miR122 inh
CC(C)(C)c1ccc(OCC(=O)Nc2ccc3c4c(cccc24)C(=O)NC3=O)cc1	-1	-14	20*	13	-21
COc1ccc(NC(=O)c2ccc(NC(=O)c3nc4nccc(C)n4n3)cc2)cc1	-2	-11	27*	-2	-12

# 3 successive entries already listed, for reference:
# Every second line gives: PglD DTNB	Yeast UUG start	F508del corr	LGR2 inh	miR122 inh	EWS-Fli inh
C[C@H](CO)N1C[C@H](C)[C@@H](CN(C)CC2CCCCC2)OCCCC[C@H](C)Oc2ccc(NC(=O)Nc3ccc(C(F)(F)F)cc3)cc2C1=O
  3	0	0	-3	-27[16.7 µM]	60*
C[C@@H]1CN([C@H](C)CO)C(=O)c2cc(NC(=O)Nc3ccc(C(F)(F)F)cc3)ccc2O[C@@H](C)CCCCO[C@@H]1CN(C)CC1CCCCC1
  10	6	-1	1	-27[16.7 µM]	78*
C[C@@H]1CN([C@@H](C)CO)C(=O)c2cc(NC(=O)Nc3ccc(C(F)(F)F)cc3)ccc2O[C@@H](C)CCCCO[C@H]1CN(C)CC1CCCCC1
  0	6	-1	·	4[16.7 µM]	47

# The results go on:
# Every second line gives: PglD DTNB	Yeast UUG start	F508del corr	LGR2 inh	miR122 inh	EWS-Fli inh
CC(=O)N1CCN(C(=O)c2ccc(NS(=O)(=O)c3cc(C)ccc3C)cc2)CC1
  ·	·	-1	-22	·	1
Cc1ccc(C)c(S(=O)(=O)Nc2ccc(C(=O)N3CCCCC3)cc2)c1
  0	6	1	-14	109*	3
COc1ccccc1NS(=O)(=O)c1cc(C(=O)N2CCCCCC2)ccc1C
  2	-8	18*	3	58	7
COc1ccc(-n2c(=O)c3c4c(sc3n(CC(=O)NC3CCCC3)c2=O)CCCC4)c(OC)c1
  ·	·	1	3	-3	13
Cc1cccc(-c2nnc(-c3ccc4ccccc4c3)o2)c1
  -2	-13	2	52*	-5	-21
Cc1cccc(-c2nnc(-c3cccc4ccccc34)o2)c1
  -2	-25	1	-25	146*	-4
Cc1ccc(-c2nnc(-c3ccccc3)o2)cc1
  -7	-24	·	·	0	·
Cc1cc(NC(=O)CSc2nnc(C(C)N(C)C)n2-c2ccc(F)cc2)no1 (configuration not stated)
  ·	·	-1	-5	·	9
CC(C)NC(=O)N[C@@H]1CC[C@H](CCn2cc(-c3ccccc3)nn2)O[C@@H]1CO
  1	0	-5	-9	·	2
COc1cccc(NS(=O)(=O)c2ccc(Br)s2)c1
  ·	-7	·	·	218*	·
COc1cccc(NS(=O)(=O)c2c(C)cc(C)cc2C)c1
  0	21	·	16	399*	·
COc1ccccc1NS(=O)(=O)c1ccc(Br)s1
  1	-6	·	·	60	·
COc1ccc(NS(=O)(=O)c2c(C)cc(C)cc2C)cc1
  3	-5	·	·	43	·
CCOC(=O)c1sc(NC(=O)c2c(CC)noc2C)nc1C
  3	6	14*	-12	-8	-4
CCOC(=O)c1sc(Nc2nc(C)cc(OC)n2)nc1C
  1	-15	-1	3	16	6
